Experimental data from patent US10517954B2, “Pegylated carfilzomib compounds” (AMGEN INC., priority 2016, dated 2019).

Experiments:
[1] = PEG-carfilzomib mouse pK (FIG. 2); assay type: in vivo; conditions: i.v. bolus, female Balb/c mice; control standard carfilzomib formulation 5 mg/kg
Method: Mean plasma concentration (μM) following intravenous administration of PEG-carfilzomib conjugate to female Balb/c mice (n=3). Dosage indicated is mg/kg of PEG-carfilzomib conjugate. […] Blood samples were collected at the indicated time points and plasma carfilzomib concentrations were measured in duplicate by LC/MS-MS. […] This standard carfilzomib represents the currently approved formulation for carfilzomib for treatment of multiple myeloma.

[2] = Mean carfilzomib plasma concentration-time profiles, IV (FIG. 4, Table 4); conditions: male Balb/c mice
[3] = carfilzomib in plasma, IV 5 mg/kg (equivalent to carfilzomib)

| Substance | carfilzomib plasma profile compared with control carfilzomib (FIG. 2) [1] | AUC0-24 [2, 3] | CL/F [2, 3] | Cmax [2, 3] | T1/2 [2, 3] | Volume of Distribution (Vdss) [2, 3] | carfilzomib plasma concentration-time profile (FIG. 4) ([2]; i.v. bolus 5 mg/kg (equivalent to carfilzomib)) | time carfilzomib is present in / released into the plasma post administration ([2]; i.v. bolus 5 mg/kg (equivalent to carfilzomib), measured to 24 h) |
| --- | --- | --- | --- | --- | --- | --- | --- | --- |
| 4-(4-Acetoxy-3-(1-(PEG5K-imino)ethyl)benzyl)-4-((4S,7S,10S,13S)-10-benzyl-7-isobutyl-15-methyl-13-((R)-2-methyloxirane-2-carbonyl)-2,5,8,11-tetraoxo-4-phenethyl-3,6,9,12-tetraazahexadecyl)morpholin-4-ium methanesulfonate [Example 16] | improved availability of free, active carfilzomib over the same time period as that of the control | – | – | – | – | – | – | – |
| 4-((4S,7S,10S,13S)-10-Benzyl-7-isobutyl-15-methyl-13-((R)-2-methyloxirane-2-carbonyl)-2,5,8,11-tetraoxo-4-phenethyl-3,6,9,12-tetraazahexadecyl)-4-(4-(isobutyryloxy)-3-((PEG5K-imino)methyl)benzyl)morpholin-4-ium methanesulfonate [Example 26] | – | 847 ng·h/mL | 96.17 mL/min/kg | 472 ng/mL | 8.51 h | 12.8 L/kg | higher concentrations | about 25 hours |
| 4-(3-Acetoxy-4-((PEG5K-imino)methyl)benzyl)-4-((4S,7S,10S,13S)-10-benzyl-7-isobutyl-15-methyl-13-((R)-2-methyloxirane-2-carbonyl)-2,5,8,11-tetraoxo-4-phenethyl-3,6,9,12-tetraazahexadecyl)morpholin-4-ium methanesulfonate [Example 18] | profile similar to that of the control carfilzomib | – | – | – | – | – | – | – |
